Measured values taken from US7034208B1, “Ahas inhibiting herbicide resistant wheat and method for selection thereof” (BASF Aktiengellschaft, priority 1991, dated 2006).

Legend:
[1] = system: mutant wheat selections FS1-FS4 and Fidel; format: in vivo; details: postemergence, plant growth four weeks after treatment
From the text: This greenhouse test examines the level and spectrum of herbicide resistance of the mutant selections at the whole plant level. […] These lines are bulked according to their parental lines: FS1, FS2, FS3 and FS4. Fidel (wild-type) is used is a control and for performance comparison purposes. Five seeds from each of these lines (including Fidel) are planted per pot in six inch Azalea pots and are later thinned to three plants per pot. Three replicates are used per treatment (chemical and rate) for each line, and six replicates per wheat line are used as untreated controls. Plants are sprayed postemergence, 10 days after planting, with the following herbicides and rates: […]

wheat seeds = assay: Seed soak screen (Example 1, Step 1, Experiments 1-4); format: in vivo
Experimental: The seeds are rinsed in sterile distilled water and then soaked in a herbicide concentration for a set period of time, as described below. Sets of twenty-five seeds are placed into 25 ml of the herbicide solution described below in a sterile 100×15 mm plastic petri dish and soaked for the designated time. The seeds are rinsed with water, dried with paper towels and planted (25 seeds/flat) approximately ½″ deep in 6×8 inch peat flats containing a moist, sterile, artificial soil, Metro Mix 350™ (Grace Company, Cambridge, Mass.). The treatments are evaluated at four weeks after treatment. The herbicides, rates and time periods evaluated are described below:
Each treatment is replicated four times.
Each treatment is replicated two times.
The protocol is as described above except that 35 seeds are soaked per petri dish; 25 seeds are still planted per flat. This experiment is repeated twice.

CC(C)C1(C)N=C(c2nc3ccccc3cc2C(=O)O)NC1=O (stereo not drawn) [SCEPTER, 2-(4-isopropyl-4-methyl-5-oxo-2-imidazolin-2-yl)-3-quinolinecarboxylic acid]
rate to which the mutant wheat is resistant [1]: more than 640 g/ha
effectiveness as selective agent in seed soak (wheat seeds; 250-1500 uM for 48, 72 or 96 hours): not effective at any of the herbicide/exposure length combinations
suitability for selection of resistant mutants (wheat seeds; seed soak 1000 or 1500 uM for three days, Experiment 4): suitable for selection of imidazolinone resistant mutants with the problem of false positives minimized
